Laboratory results as given in PubChem BioAssay AID602393 (Broad Institute, 2012).
The list shows a part of the results, in another mix than the full data. Activity calls are given as the source filed them. Cut-off read from the data, not from the text of the source: active = activation above about 40%; inconclusive = no clear call, values can overlap the other calls; inactive = below that.

Test: Bmi1 luciferase reporter increase in mESCs, primary screen, esBAF inhibitor project, mouse ES cells, Bmi1 luciferase knock-in, single point (AID 602393);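 note: 0% = median of the plate's neutral control wells and 100% = double that signal; a rise in the Bmi1 reporter signal indicates esBAF inhibition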
Conditions: 24 h, at 12.5 µM, stronger effect = higher value, 100% = twice the neutral-well signal

SMILES | reporter increase
COc1cc(OC)c(C(=O)NCC2(N(C)C)CCCCC2)cc1OC | inactive: 5.52%
CCC(c1nnnn1C(C)(C)C)N1CCC(n2c(=O)[nH]c3ccccc32)CC1 (centres undefined) | inactive: 1.94%
O=C(NCC1(N2CCOCC2)CCCCC1)c1cc(F)c(F)cc1Cl | inactive: 2.96%
CCCCn1nnnc1C(c1ccnc2ccccc12)N1CCC(n2c(=O)[nH]c3ccccc32)CC1 (centres undefined) | inactive: -2.28%
CCCCn1nnnc1C(c1ccccc1OC(F)(F)F)N1CCC(n2c(=O)[nH]c3ccccc32)CC1 (centres undefined) | inactive: 6.8%
COc1ccc(CN(CCCl)CCCl)cc1Cl | inactive: -4.57%
CN(C)c1cccc(C(=O)NCC2(N3CCCCC3)CCCCC2)c1 | inactive: 5.03%
COc1ccc(C(c2nnnn2C2CCCC2)N2CCC(n3c(=O)[nH]c4ccccc43)CC2)cc1 (centres undefined) | inactive: -5.18%
Cc1ccc(C(=O)NCC2(N(C)C)CCCCC2)o1 | inactive: -1.64%
CCCOc1ccc(C(=O)NCC2(N(C)C)CCCCC2)cc1OC | inactive: -0.983%
O=C(NCC1(N2CCCCC2)CCCCC1)c1cncc(Br)c1 | inactive: -2.92%
CCN1CCC(Nc2ccc(Cl)cc2)CC1 | inactive: -8.43%
O=c1[nH]c2ccccc2n1C1CCN(C(c2ccccc2OC(F)(F)F)c2nnnn2C2CCCC2)CC1 (centres undefined) | inactive: -8.58%
N#CC1(Nc2ccccc2)CCN(CCc2ccccc2)CC1 | inactive: -6.02%
CC(C)(C)n1nnnc1C(c1ccccc1OC(F)(F)F)N1CCC(n2c(=O)[nH]c3ccccc32)CC1 (centres undefined) | inactive: -2.53%
O=C(NCC1(N2CCCCC2)CCCCC1)c1ccc(OC(F)F)cc1 | inactive: -7.03%
O=C(NCC1(N2CCOCC2)CCCCC1)c1cc(=O)[nH]c2ccccc12 | inactive: -4.56%
COc1cc(C(=O)NCC2(N3CCCCC3)CCCCC2)ccc1OC(F)F | inactive: -1.73%
CC(C)c1ccc(C(=O)NCC2(N3CCOCC3)CCCCC2)cc1 | inactive: 10.7%
CCCCn1nnnc1C(c1cccc2ccccc12)N1CCC(n2c(=O)[nH]c3ccccc32)CC1 (centres undefined) | inactive: 1.65%
O=C(NCC1(N2CCCCC2)CCCCC1)c1cccc(C(F)(F)F)c1 | inactive: -4.96%
O=P1(N(CCCl)CCCl)SCCCS1 | inactive: -1.24%
CCCCn1nnnc1C(c1cc2ccccc2o1)N1CCC(n2c(=O)[nH]c3ccccc32)CC1 (centres undefined) | inactive: -0.107%

SMILES | reporter increase
O=C(NCC1(N2CCCCC2)CCCCC1)c1ccc(F)cc1 | inactive: -0.297%
CCOC(=O)N1CCC(Nc2ccc(F)cc2)CC1 | inactive: -10.3%
COc1ccc(NC2CCN(CCc3ccccc3)CC2)c(OC)c1 | inactive: -6.58%
CC(C)(C)n1nnnc1C(c1ccccc1)N1CCC(n2c(=O)[nH]c3ccccc32)CC1 (centres undefined) | inactive: -3.47%
O=C1CCN(Cc2ccccc2)CC1 | inactive: 17.2%
CCOC(=O)N1CCC(Nc2cccc(C)c2)CC1 | inactive: 10.5%
COc1cc(C(=O)NCC2(N(C)C)CCCCC2)ccc1OC(F)F | inactive: 2.53%
O=c1[nH]c2ccccc2n1C1CCN(C(c2cccc3ccccc23)c2nnnn2C2CCCC2)CC1 (centres undefined) | inactive: -1.99%
O=c1[nH]c2ccccc2n1C1CCN(C(c2ccccc2)c2nnnn2C2CCCCC2)CC1 (centres undefined) | inactive: -0.222%
CSc1ccccc1C(=O)NCC1(N2CCCCC2)CCCCC1 | inactive: 0.133%
Cc1cccc(NC2(C#N)CCN(Cc3ccccc3)CC2)c1 | inactive: 1.7%
COc1ccc(C(=O)NCC2(N3CCCCC3)CCCCC2)cc1 | inactive: -3.06%
CC(C)(C)OC(=O)N1CCC(N(C(=O)c2ccccc2)c2ccc(F)cc2)CC1 | inactive: -6.72%
CCC(c1nnnn1C1CCCC1)N1CCC(n2c(=O)[nH]c3ccccc32)CC1 (centres undefined) | inactive: -7.32%
O=C(NCC1(N2CCCCC2)CCCCC1)c1ccc(=O)[nH]c1 | inactive: -9.07%
CCCCn1nnnc1C(CC)N1CCC(n2c(=O)[nH]c3ccccc32)CC1 (centres undefined) | inactive: -8.64%
O=C(NCC1(N2CCCCC2)CCCCC1)c1cccs1 | inactive: -4.41%
CCCCn1nnnc1C(c1cccs1)N1CCC(n2c(=O)[nH]c3ccccc32)CC1 (centres undefined) | inactive: -1.19%
O=C(NCC1(N2CCCCC2)CCCCC1)c1ccc(Cl)s1 | inactive: -4.28%
O=c1[nH]c2ccccc2n1C1CCN(C(c2cc3ccccc3o2)c2nnnn2C2CCCCC2)CC1 (centres undefined) | inactive: 2.92%
O=C(OC1CN2CCC1CC2)C1c2ccccc2Oc2ccccc21 (centres undefined) | inactive: -0.397%
COc1ccc(Cl)cc1C(=O)NCC1(N2CCOCC2)CCCCC1 | inactive: -1.92%
CCOC(=O)N1CCC(Nc2ccc(OC)cc2)CC1 | inactive: -7.26%

SMILES | reporter increase
CCCCn1nnnc1C(c1ccc(OC)cc1)N1CCC(n2c(=O)[nH]c3ccccc32)CC1 (centres undefined) | inactive: 1.04%
O=C(NCC1(N2CCCCC2)CCCCC1)c1ccc(Cl)nc1 | inactive: 0.629%
O=c1[nH]c2ccccc2n1C1CCN(C(c2ccccc2OC(F)(F)F)c2nnnn2C2CCCCC2)CC1 (centres undefined) | inactive: 6.32%
Cc1cc(C)cc(N(C(=O)c2ccccc2)C2CCN(C(=O)OC(C)(C)C)CC2)c1 | inactive: 6.5%
O=C(O)C1(Nc2ccccc2)CCN(Cc2ccccc2)CC1 | inactive: -2.96%
O=c1[nH]c2ccccc2n1C1CCN(C(c2cc3ccccc3o2)c2nnnn2C2CCCC2)CC1 (centres undefined) | inactive: 14.1%
CCCOc1ccc(C(=O)NCC2(N(C)C)CCCCC2)cc1 | inactive: 4.23%
CCOc1ncccc1C(=O)NCC1(N2CCOCC2)CCCCC1 | inactive: -6.79%
CN1CCC(Nc2ccc(F)c(Cl)c2)CC1 | inactive: 3.13%
CN1CCC(Nc2ccc(Cl)cc2)CC1 | inactive: 0.0305%
COc1cccc(C(=O)N(c2cc(C)cc(C)c2)C2CCN(C(=O)OC(C)(C)C)CC2)c1 | inactive: 5.75%
COc1cccc(C(c2nnnn2C2CCCC2)N2CCC(n3c(=O)[nH]c4ccccc43)CC2)c1OC (centres undefined) | inactive: -4.42%
COc1cc(OC)cc(C(=O)NCC2(N3CCOCC3)CCCCC2)c1 | inactive: -6.28%
CCC(CO)(C(=O)OC1CN2CCC1CC2)c1ccccc1 (centres undefined) | inactive: 5.85%
Cc1ccc(C(=O)NCC2(N3CCCCC3)CCCCC2)o1 | inactive: -4.7%
Fc1ccccc1NC1CCN(Cc2ccccc2)CC1 | inactive: -7.92%
Cc1ccc(NC2(C#N)CCN(Cc3ccccc3)CC2)cc1 | inactive: -7.74%
COc1cccc(C(c2nnnn2C2CCCCC2)N2CCC(n3c(=O)[nH]c4ccccc43)CC2)c1OC (centres undefined) | inactive: -3.34%
CC(=O)N(c1ccccc1)C1CCNCC1 | inactive: 0.277%
CCC(c1nnnn1C1CCCCC1)N1CCC(n2c(=O)[nH]c3ccccc32)CC1 (centres undefined) | inactive: -8.42%
COc1cc(OC)cc(C(=O)NCC2(N3CCCCC3)CCCCC2)c1 | inactive: -3.73%
O=c1[nH]c2ccccc2n1C1CCN(C(c2ccnc3ccccc23)c2nnnn2C2CCCCC2)CC1 (centres undefined) | inactive: -1.2%
O=C(NCC1(N2CCCCC2)CCCCC1)c1ccco1 | inactive: 0.626%

SMILES | reporter increase
Cn1c(=O)[nH]cc(N(CCCl)CCCl)c1=O | inactive: -11.6%
Cc1ccccc1NC1(C#N)CCN(Cc2ccccc2)CC1 | inactive: 4.95%
COc1ccc(C(c2nnnn2C2CCCCC2)N2CCC(n3c(=O)[nH]c4ccccc43)CC2)cc1 (centres undefined) | inactive: -1.69%
CC(C)(C)n1nnnc1C(c1ccnc2ccccc12)N1CCC(n2c(=O)[nH]c3ccccc32)CC1 (centres undefined) | inactive: 3.26%
N#Cc1ccc(C(=O)NCC2(N3CCCCC3)CCCCC2)cc1 | inactive: -4.53%
CC(C)(C)OC(=O)N1CCC(N(C(=O)c2ccccc2)c2ccc(Cl)cc2)CC1 | inactive: -7.46%
CC(C)(C)n1nnnc1C(c1cccc2ccccc12)N1CCC(n2c(=O)[nH]c3ccccc32)CC1 (centres undefined) | inactive: 1.06%
CN(C)C1(CNC(=O)c2cccc(C#N)c2)CCCCC1 | inactive: -1.27%
CCCN1CCC(Nc2cc(OC)cc(OC)c2)CC1 | inactive: 1.59%
O=c1[nH]c2ccccc2n1C1CCN(C(c2ccccc2)c2nnnn2C2CCCC2)CC1 (centres undefined) | inactive: 1.16%
O=c1[nH]c2ccccc2n1C1CCN(C(c2cccs2)c2nnnn2C2CCCCC2)CC1 (centres undefined) | inactive: 1.46%
O=c1[nH]c2ccccc2n1C1CCN(C(c2ccnc3ccccc23)c2nnnn2C2CCCC2)CC1 (centres undefined) | inactive: -2.4%
CCCCn1nnnc1C(c1ccccc1)N1CCC(n2c(=O)[nH]c3ccccc32)CC1 (centres undefined) | inactive: -6.7%
COc1cc(C(=O)NCC2(N3CCOCC3)CCCCC2)cc(OC)c1C | inactive: 7.88%
O=C(NCC1(N2CCOCC2)CCCCC1)c1cc(Br)ccc1Cl | inactive: 8.04%
O=c1[nH]c2ccccc2n1C1CCN(C(c2cccs2)c2nnnn2C2CCCC2)CC1 (centres undefined) | inactive: -6.64%
CCCCn1nnnc1C(c1cccc(OC)c1OC)N1CCC(n2c(=O)[nH]c3ccccc32)CC1 (centres undefined) | inactive: 1.12%
CCOC(=O)N1CCC(Nc2ccc(C)cc2)CC1 | inactive: 7.17%
COc1cccc(C(c2nnnn2C(C)(C)C)N2CCC(n3c(=O)[nH]c4ccccc43)CC2)c1OC (centres undefined) | inactive: -5.46%
N/C(=N\O)c1c(N)no[n+]1[O-] | inactive: 4.02%
